From PubChem BioAssay AID624171 (National Center for Advancing Translational Sciences (NCATS), 2012)
This is a selection; strong and weak results do not stand in their true shares. Activity calls are given as the source filed them. Calls follow the shape of the dose curve; as a rule, active = well fitted activation curve with a large enough effect; inconclusive = small, poorly fitted or top-dose-only effect; inactive = flat fitted curve, though single readings scatter.

Assay: qHTS of Nrf2 Activators; also: % of control where 0% means no effect; nearly all actives have a fitted effect of over 65% in size
Conditions: AREc32 ARE-luciferase reporter (MCF7-derived line), luminescence, 24 h; at 46.1 µM (top of the series)
Excerpt: Many diseases have some form of oxidative stress injury and ties to inflammation, causing a host of problems for the patient. The antioxidant response element (ARE) plays an important role in alleviating the harmful effects of oxidative stress. The antioxidant response element (ARE) is a transcriptional regulatory element involved in the activation of genes coding for a number of antioxidant proteins and detoxifying enzymes. These enzymes work in concert to protect tissues from oxidative insults and chemical toxicities in human hepatocytes and immune cells. The protective effects of ARE activation are primarily triggered through Nrf2 (NF-E2-related factor) binding to and activating AREs. It is known that Nrf2 controls the production of over 250 antioxidant and detoxification proteins (Hu et al., 2006), thereby protecting tissues by increasing cellular antioxidant content and suppressing inflammatory signaling pathways. The transcription factor Nrf2 is a central link between oxidative chemicals, such as phenolic antioxidants and electrophilic compounds, and the activation of ARE. […]
5 uL of 1000 cells/well of AREc32_Fluc cells are seeded into 1536-well plate in OPTI-MEM medium with 5% FBS. […] After the addition of 2.5 uL of Steady-Glo. the plates are kept at RT for 30 min, before they are read on the ViewLux.

Compound | activation
CCC(=O)N(c1ccccc1)C1(COC)CCN(CCn2nnn(CC)c2=O)CC1 | inactive: 0.764%
CCC(=O)N(c1ccccc1)C1(COC)CCN(CCc2cccs2)CC1 | inactive: -1.02%
